Assays:
[1] = Incorporation of protein into charged microparticles; assay type: physicochemical; details: neutral or physiological pH
[2] = Protein release from gels comprising anionically and cationically charged microparticles (release buffer, 37° C., BCA Protein Assay); assay type: physicochemical; details: for time to reach a release of 50% of protein: HEPES pH 7 isotonised with NaCl, 37° C.
Description: To each of the gels prepared according to example 5, 1.5 mL release buffer (HEPES, pH 7, 100 mM, isotonised with NaCl) was added. Subsequently, the cups were incubated at 37° C. Samples of 1.0 mL were taken at various intervals and replaced by 1.0 mL fresh buffer. The protein concentration in the samples was measured […] using the BCA Protein Assay.
Gels loaded with IgG were prepared in analogy to example 5 and tested in analogy to example 6, except that IgG was used as a model protein instead of lysozyme and BSA.

**Q.** For bovine serum albumin [BSA], which “incorporation into negatively charged microparticles” value [1] is on record?
**A.** Its value is “The opposite is true”.

**Q.** What about the “incorporation into positively charged microparticles” value [1] of the same substance?
**A.** Its value is “The opposite is true”.

**Q.** What about the “time to reach a release of 50% of protein” value ([2]; 12.5%-gel (solid content about 12.5%)) of the same substance?
**A.** Its value is “about 30 h”.

**Q.** And the “time to reach a release of 50% of protein” value ([2]; 25.5%-gel (so in the source))?
**A.** Its value is “about 100 h”.

**Q.** And the “release rate compared with the other model proteins” value ([2]; gels of oppositely charged microparticles)?
**A.** The value was “released more slowly than lysozyme”.
